One test deals with LIMK1(h) (Homo sapiens, UniProt P53667). Nature of the test: LIMK1 kinase assay (Eurofins Panlabs, radiometric). The test is classed as biochemical. The arrangement: purchased Eurofins Panlabs Inc. (contract assay service).
The next test addresses LIMK2(h) (Homo sapiens, UniProt P53671). Nature of the test: biochemical. From the text: (specific activity and concentration as required). The reaction is initiated by the addition of the Mg/ATP mix.

Sequences of proteins named here, by UniProt entry; tags and fusion partners are left off. A change or cut given only in a name is not applied to a line headed by its entry.
UniProt P53667: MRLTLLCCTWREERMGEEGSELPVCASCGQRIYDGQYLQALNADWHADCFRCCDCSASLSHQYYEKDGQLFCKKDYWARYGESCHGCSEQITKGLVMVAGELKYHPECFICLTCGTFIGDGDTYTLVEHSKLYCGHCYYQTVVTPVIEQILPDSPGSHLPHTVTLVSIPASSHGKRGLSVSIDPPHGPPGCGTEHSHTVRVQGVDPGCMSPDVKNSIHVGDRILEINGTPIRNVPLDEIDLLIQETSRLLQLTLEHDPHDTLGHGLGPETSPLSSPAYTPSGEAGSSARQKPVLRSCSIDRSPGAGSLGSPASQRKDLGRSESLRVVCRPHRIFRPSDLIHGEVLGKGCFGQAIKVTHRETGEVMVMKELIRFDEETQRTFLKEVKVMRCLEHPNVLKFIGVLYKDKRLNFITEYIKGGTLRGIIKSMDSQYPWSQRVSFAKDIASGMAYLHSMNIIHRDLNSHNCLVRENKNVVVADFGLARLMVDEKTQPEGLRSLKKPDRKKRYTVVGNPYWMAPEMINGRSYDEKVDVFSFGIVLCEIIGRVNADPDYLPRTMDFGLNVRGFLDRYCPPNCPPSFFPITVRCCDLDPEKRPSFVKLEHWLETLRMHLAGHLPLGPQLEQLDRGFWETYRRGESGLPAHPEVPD
UniProt P53671: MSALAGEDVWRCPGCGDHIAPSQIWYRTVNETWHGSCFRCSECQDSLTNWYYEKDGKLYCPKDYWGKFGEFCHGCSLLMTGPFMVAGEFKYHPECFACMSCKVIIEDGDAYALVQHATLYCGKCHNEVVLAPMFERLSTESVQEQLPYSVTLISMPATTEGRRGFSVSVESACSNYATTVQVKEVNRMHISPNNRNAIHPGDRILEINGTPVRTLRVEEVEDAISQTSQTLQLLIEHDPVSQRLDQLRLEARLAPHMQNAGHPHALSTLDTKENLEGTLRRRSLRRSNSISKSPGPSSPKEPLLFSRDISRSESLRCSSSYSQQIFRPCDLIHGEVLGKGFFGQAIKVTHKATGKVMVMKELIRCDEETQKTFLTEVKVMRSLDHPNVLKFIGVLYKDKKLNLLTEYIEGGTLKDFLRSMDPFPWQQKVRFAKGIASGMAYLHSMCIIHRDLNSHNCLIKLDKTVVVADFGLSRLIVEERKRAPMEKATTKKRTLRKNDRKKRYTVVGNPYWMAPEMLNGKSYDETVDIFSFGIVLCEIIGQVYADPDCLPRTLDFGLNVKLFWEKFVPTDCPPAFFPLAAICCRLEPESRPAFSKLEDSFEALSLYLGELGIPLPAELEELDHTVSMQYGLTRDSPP

SMILES strings stand for the structures. Like-named read-outs stand apart in the source and are kept apart here.

IC50 data for 2 molecules are collected here from patent US20190263796A1, “LIM KINASE INHIBITORS, PHARMACEUTICAL COMPOSITION AND METHOD OF USE IN LIMK-MEDIATED DISEASES” (CELLIPSE, priority 2016, published 2019).

A word on the IC50: it is the concentration needed to halve the response being measured. On to `CNC(=O)Cc1nc(-c2cccc(NS(=O)(=O)c3c(F)cccc3F)c2F)c(-c2ccnc(Nc3ccccc3)n2)s1` [9 (Na)], for which, on LIMK1(h) (15 μM ATP, Table 8, read-out: IC50 LIMK1), the 50% inhibitory concentration (IC50) was below 10 nM. As to `CNC(=O)Cc1nc(-c2cccc(NS(=O)(=O)c3c(F)cccc3F)c2F)c(-c2ccnc(Nc3ccccc3)n2)s1` [Compound 9, 2-(4-(3-(2,6-difluorophenylsulfonamido)-2-fluorophenyl)-5-(2-(phenylamino)pyrimidin-4-yl)thiazol-2-yl)-N-methylacetamide], the half-maximal inhibitory concentration (IC50) on LIMK2(h) and at LIMK1(h) was below 10 nM in each case.
